Experimental data taken from PMC5778159 (Naunyn-Schmiedeberg's Archives of Pharmacology, 2017).

Assay: Isolated perfused rat liver (IPRL) study, recirculating
Details: for concentration in the perfusion buffer: average, 300 μg in 200 mL
Experimental: Rat livers were perfused in situ using PS-1 perfusion system from Harvard Apparatus-Hugo Sachs Electronics (HA-HSE). […] The temperature of the perfusion medium was thermostatically controlled at 37 °C. In each experiment, the common bile duct was cannulated with PE-10 tubing. […] Experiments were carried out in a recirculating manner with the total volume of perfusate equal 200 mL. […] Samples of bile were collected in pre-weighed Eppendorf vials and measured by gravimetric volume at the end of perfusion period, assuming a density of 1. Perfusate was collected from the reservoir at 5 min intervals up to 45 min.
Non-compartmental estimates of hepatic pharmacokinetic parameters were determined from the outflow concentration-time profiles. The hepatic extraction ratio (ERH) was calculated according to the following equation:2 ERH=CLH/Q where CLH is a hepatic clearance (per gram of liver) and Q is a perfusate flow (per gram of liver).
The apparent hepatobiliary clearance (CLb,app) was calculated as the cumulative amount of drug excreted in bile divided by the AUC0-t of the drug in the perfusate.

## CN1c2ccccc2C(NCCCCCCC(=O)O)c2ccc(Cl)cc2S1(=O)=O (stereo not drawn) [Tianeptine, Tianeptine sodium salt]
After 45 min
  concentration in the perfusion buffer: 17 ng/mL
First sampling time (5 min)
  concentration in the perfusion buffer: 952 ng/mL
Up to 45 min of perfusion, mean ± SD
  percent eliminated into the bile: 0.94 ± 0.33 % of the administered dose

Counter-ions that a name gives are not always drawn.
